Key:
[1] = ref von Euler and Gaddum, 1931 (Substance P); Amara et al., 1982 (CGRPα); cited from earlier work
Excerpt: Among the most challenging diseases to treat is chronic pain. With over 20% of the population suffering from chronic pain, we urgently need to find new analgesic targets ([Nahin et al., 2023]).

Chains of the proteins cited; added tags and fusions are not shown. Residues count along the entry.
UniProt Q9R1W5, 23-463: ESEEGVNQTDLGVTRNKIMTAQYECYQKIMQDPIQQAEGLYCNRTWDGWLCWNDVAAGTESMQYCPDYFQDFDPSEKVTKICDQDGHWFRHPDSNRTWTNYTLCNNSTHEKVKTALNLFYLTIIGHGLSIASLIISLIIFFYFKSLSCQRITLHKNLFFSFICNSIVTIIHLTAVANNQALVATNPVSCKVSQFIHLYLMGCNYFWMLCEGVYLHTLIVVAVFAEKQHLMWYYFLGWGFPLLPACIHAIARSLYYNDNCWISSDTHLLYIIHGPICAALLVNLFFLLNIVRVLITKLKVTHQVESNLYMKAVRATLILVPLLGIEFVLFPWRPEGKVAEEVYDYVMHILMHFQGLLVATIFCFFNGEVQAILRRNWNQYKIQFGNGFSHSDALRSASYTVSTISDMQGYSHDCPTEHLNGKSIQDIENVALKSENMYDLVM
UniProt Q9WTJ5, 27-148: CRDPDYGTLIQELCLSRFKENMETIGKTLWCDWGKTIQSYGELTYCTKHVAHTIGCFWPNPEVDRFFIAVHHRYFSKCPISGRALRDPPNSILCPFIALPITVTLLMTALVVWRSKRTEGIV

[2] = target: T1, CGRP receptor (Calcrl and Ramp1) (Mus musculus, UniProt Q9R1W5+Q9WTJ5); assay: Co-culture of DRG neurons with CGRP-sniffer cells, capsaicin-evoked CGRPα release; type: cell-based; settings: exogenous CGRPα saturating concentration (100–1000 nM); co-culture with WT or DKO DRG
T1 construct: expressed in transfected cells; host or cells: HEK293; Calcrl/Gα15/GCaMP6s by PiggyBac transposase (puromycin), Ramp1 by pSBbi-Neo-cmv-TETo2-RAMP1 IRES-mTagBFP2-NLS (geneticin); doxycycline-induced
Excerpt: Figure 1. […] (A) Confocal images showing Substance P immunostaining in the dorsal root ganglion (DRG), spinal cord dorsal horn and midbrain of a WT mouse (top). No staining is detectable in the DKO (bottom). (B) Confocal images showing CGRP immunostaining in the DRG, spinal cord dorsal horn, and amygdala of a WT mouse (top). The DKO mice show no obvious staining (bottom). Images in both (A) and (B) are representative of staining performed on tissue from 1M and 1F animal per genotype. (C) Schematic showing co-culture of Tac1-RFP-labelled DRG neurons and Substance P-sniffer HEK293 cells expressing NKR1, GCaMP6s and Gαo. […] (D) Fluorescence images showing Tac1-RFP-labelled DRG neurons (magenta) and Substance P-sniffer cells (green). […] For (E), means were compared using repeated measures 2-way ANOVA, followed by post-hoc Sidak’s test. Error bars denote standard error of the mean. (F) Schematic showing co-culture of Tac1-RFP-labelled DRG neurons and Substance P-sniffer HEK293 cells expressing Calcrl, Ramp1, GCaMP6s and Gαo. […] (G) Fluorescence images showing Tac1-RFP-labelled DRG neurons (magenta) and Substance P-sniffer cells (green). […]
Imaging was performed in Ringer’s solution: 125 mM NaCl, 3 mM KCl, 5 mM CaCl2, 1 mM MgCl2, 10 mM glucose, and 10 mM HEPES (all from Sigma-Aldrich), adjusted to pH 7.3 with 1 M NaOH, and osmolality measured ~280 mmol/kg. […]

## CC(C)C[C@H](NC(=O)CNC(=O)[C@H](C)NC(=O)[C@H](CC(C)C)NC(=O)[C@H](CCCNC(=N)N)NC(=O)[C@H](Cc1c[nH]cn1)NC(=O)[C@@H](NC(=O)[C@@H](NC(=O)[C@@H]1CSSC[C@H](NC(=O)[C@@H](N)CO)C(=O)N[C@@H](CC(N)=O)C(=O)N[C@@H]([C@@H](C)O)C(=O)N[C@@H](C)C(=O)N[C@@H]([C@@H](C)O)C(=O)N1)C(C)C)[C@@H](C)O)C(=O)N[C@@H](CC(C)C)C(=O)N[C@@H](CO)C(=O)N[C@@H](CCCNC(=N)N)C(=O)N[C@@H](CO)C(=O)NCC(=O)NCC(=O)N[C@H](C(=O)N[C@H](C(=O)N[C@@H](CCCCN)C(=O)N[C@@H](CC(=O)O)C(=O)N[C@@H](CC(N)=O)C(=O)N[C@@H](Cc1ccccc1)C(=O)N[C@H](C(=O)N1CCC[C@H]1C(=O)N[C@H](C(=O)N[C@@H](CC(N)=O)C(=O)N[C@H](C(=O)NCC(=O)N[C@@H](CO)C(=O)N[C@@H](CCC(=O)O)C(=O)N[C@@H](C)C(=O)N[C@@H](Cc1ccccc1)C(N)=O)C(C)C)[C@@H](C)O)C(C)C)C(C)C)C(C)C [CGRPα]
[1]
  Contractile or vasodilator activity: potent vasodilator
[2]
  CGRP-sniffer activation by exogenous peptide: activates CGRP-sniffers in both conditions
